The target of this experiment is Human Cot (Homo sapiens (Human), UniProt P41279). Kind of experiment: High Throughput Cot Biochemical Assay.
Setting [1] is: IC50 HTRF, Cot HTRF (TR-FRET) biochemical assay.
Where [2] appears, read: read-out: IC50 HTRF, Cot HTRF (TR-FRET) biochemical assay.

Sequences of proteins named here, by UniProt entry; tags and fusion partners are left off. Residues count along the entry.
UniProt P41279, 30-397: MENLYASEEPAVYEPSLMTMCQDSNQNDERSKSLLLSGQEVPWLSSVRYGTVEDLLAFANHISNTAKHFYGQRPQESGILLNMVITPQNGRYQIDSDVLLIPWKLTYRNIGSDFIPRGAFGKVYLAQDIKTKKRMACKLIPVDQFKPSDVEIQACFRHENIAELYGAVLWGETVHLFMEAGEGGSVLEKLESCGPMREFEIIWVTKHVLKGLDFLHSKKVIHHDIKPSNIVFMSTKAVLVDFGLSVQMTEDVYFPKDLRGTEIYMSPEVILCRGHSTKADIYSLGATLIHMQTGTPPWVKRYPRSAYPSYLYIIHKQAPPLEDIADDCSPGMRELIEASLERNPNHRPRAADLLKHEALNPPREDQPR

SMILES strings stand for the structures. Like-named read-outs stand apart in the source and are kept apart here.

As a reminder, the IC50 is the midpoint of a concentration-inhibition curve. On to `Cc1ocnc1[C@H](Nc1cc(Cl)c2ncc(C#N)c(Nc3ccc(F)c(Cl)c3)c2c1)c1cn(C2CCN(C(C)(C)C)CC2)nn1` [Example 263, (S)-6-(((1-(1-(tert-butyl)piperidin-4-yl)-1H-1,2,3-triazol-4-yl)(5-methyloxazol-4-yl)methyl)amino)-8-chloro-4-((3-chloro-4-fluorophenyl)amino)quinoline-3-carbonitrile], for which, under setting [1], the IC50 amounted to 13 nM.

`Cc1nc(C)c([C@H](Nc2cc(Cl)c3ncc(C#N)c(Nc4ccc(F)c(Cl)c4)c3c2)c2cn(C3CCN(C(C)(C)C)CC3)nn2)s1` [Example 261, (R)-6-(((1-(1-(tert-butyl)piperidin-4-yl)-1H-1,2,3-triazol-4-yl)(2,4-dimethyl-thiazol-5-yl)methyl)amino)-8-chloro-4-((3-chloro-4-fluorophenyl)amino)-quinoline-3-carbonitrile] came in with an IC50 under setting [1] of 14 nM.

As for `[2H][C@](Nc1cc(Cl)c2ncc(C#N)c(NCC(C)(C)C)c2c1)(c1ccc(F)nc1)c1c[nH]nn1` [Example 135, (S)-8-chloro-6-(((6-fluoropyridin-3-yl)(1H-1,2,3-triazol-4-yl)methyl-d)amino)-4-(neopentylamino)quinoline-3-carbonitrile], under setting [1], half-maximal inhibition (IC50) required 23 nM.

For `Cc1ccc([C@H](Nc2cc(Cl)c3ncc(C#N)c(Nc4ccc(F)c(Cl)c4)c3c2)c2cn(C3CCN(C(C)(C)C)CC3)nn2)cn1` [Example 281, (S)-6-(((1-(1-(tert-butyl)piperidin-4-yl)-1H-1,2,3-triazol-4-yl)(6-methylpyridin-3-yl)methyl)amino)-8-chloro-4-((3-chloro-4-fluorophenyl)-amino)quinoline-3-carbonitrile], the IC50 under setting [1] came out at 13 nM.

Turning to `COc1ccc([C@H](Nc2cc(Cl)c3ncc(C#N)c(NCC(C)(C)C)c3c2)c2nnn(C3(C(F)F)CC3)c2OC)c(C)n1` [Example 966, (S)-8-chloro-6-(((1-(1-(difluoromethyl)cyclopropyl)-5-methoxy-1H-1,2,3-triazol-4-yl)(6-methoxy-2-methylpyridin-3-yl)methyl)amino)-4-(neopentylamino)quinoline-3-carbonitrile], the IC50 (IC50 HTRF, Cot HTRF (TR-FRET KinEASE) biochemical assay, 400 μM ATP) came to 15 nM.

For `Cc1nc(F)ccc1[C@H](Nc1cc(C#N)c2ncc(C#N)c(NC3CCCCC3)c2c1)c1cn(C2(C(F)(F)F)CC2)nn1` [Example 585, (S)-4-(cyclohexylamino)-6-(((6-fluoro-2-methylpyridin-3-yl)(1-(1-(trifluoromethyl)-cyclopropyl)-1H-1,2,3-triazol-4-yl)methyl)amino)quinoline-3,8-dicarbonitrile], the IC50 under setting [1] worked out at 37 nM.

As to `N#Cc1cnc2c(Cl)cc(N[C@@H](c3cccnc3)c3cn(C4COC4)nn3)cc2c1N[C@@H](CCO)c1ccccc1` [Example 182, 8-chloro-4-(((S)-3-hydroxy-1-phenylpropyl)amino)-6-(((S)-(1-(oxetan-3-yl)-1H-1,2,3-triazol-4-yl)(pyridin-3-yl)methyl)amino)quinoline-3-carbonitrile], the IC50 under setting [1] came out at 13 nM.

As to `N#Cc1cnc2c(Cl)cc(N[C@H](c3cn(C4CCNCC4)nn3)c3cc(Cl)cs3)cc2c1Nc1ccc(F)c(Cl)c1` [Example 385, (R)-8-chloro-4-((3-chloro-4-fluoro-phenyl)amino)-6-(((4-chlorothiophen-2-yl)(1-(piperidin-4-yl)-1H-1,2,3-triazol-4-yl)methyl)amino)quinoline-3-carbonitrile], under setting [1], half-maximal inhibition (IC50) was put at 14 nM.

Regarding `N#Cc1cnc2c(Cl)cc(N[C@H](c3cn(C4CC4)nn3)c3cnccc3Cl)cc2c1Nc1cnc(F)c(F)c1` [Example 133, (S)-8-chloro-6-(((4-chloropyridin-3-yl)(1-cyclopropyl-1H-1,2,3-triazol-4-yl)methyl)amino)-4-((5,6-difluoropyridin-3-yl)amino)quinoline-3-carbonitrile], under setting [1], it took 25 nM to reach half-maximal inhibition (IC50).

On to `CC(C)Oc1ncccc1[C@H](Nc1cc(Cl)c2ncc(C#N)c(Nc3ccc(F)c(Cl)c3)c2c1)c1cn(C2CCN(C(C)(C)C)CC2)nn1` [Example 291, (S)-6-(((1-(1-(tert-butyl)piperidin-4-yl)-1H-1,2,3-triazol-4-yl)(2-isopro-poxypyridin-3-yl)methyl)amino)-8-chloro-4-((3-chloro-4-fluorophenyl)-amino)quinoline-3-carbonitrile], for which the IC50 under setting [2] worked out at 35 nM.

On to `Cn1ccc2c([C@H](Nc3cc(C#N)c4ncc(C#N)c(NCC(C)(C)C)c4c3)c3cn(C4(C(F)(F)F)CC4)nn3)ccnc21` [Example 664, (S)-6-(((1-methyl-1H-pyrrolo[2,3-b]pyridin-4-yl)(1-(1-(trifluoromethyl)cyclopropyl)-1H-1,2,3-triazol-4-yl)methyl)amino)-4-(neopentylamino)quinoline-3,8-dicarbonitrile], for which 12 nM corresponded to half-maximal inhibition under setting [1] (IC50).

In turn, `CC(C)n1cc([C@@H](Nc2cc(Cl)c3ncc(C#N)c(Nc4ccc(F)c(Cl)c4)c3c2)c2cc(C#N)cs2)nn1` [Example 338, (R)-8-chloro-4-((3-chloro-4-fluorophenyl)amino)-6-(((4-cyanothiophen-2-yl)(1-isopropyl-1H-1,2,3-triazol-4-yl)methyl)-amino)quinoline-3-carbonitrile] had an IC50 under setting [1] of 13 nM.

For `CCN1CCC(n2cc(C(Nc3cc(Cl)c4ncc(C#N)c(Nc5ccc(F)c(Cl)c5)c4c3)c3ncccn3)nn2)CC1` (stereo not drawn) [Example 367, 8-chloro-4-((3-chloro-4-fluorophenyl)amino)-6-(((1-(1-ethylpiperidin-4-yl)-1H-1,2,3-triazol-4-yl)(pyrimidin-2-yl)methyl)-amino)quinoline-3-carbonitrile], half-maximal inhibition under setting [1] (IC50) was put at 13 nM.

In turn, `CC(C)(C)n1cc([C@@H](Nc2cc(Cl)c3ncc(C#N)c(Nc4ccc(F)c(Cl)c4)c3c2)c2cscn2)nn1` [Example 361, (S)-6-(((1-(tert-butyl)-1H-1,2,3-triazol-4-yl)(thiazol-4-yl)methyl)-amino)-8-chloro-4-((3-chloro-4-fluorophenyl)amino)quinoline-3-carbonitrile] yielded an IC50 under setting [1] of 13 nM.

For the molecule `Cc1ccc([C@H](Nc2cc(Cl)c3ncc(C#N)c(NCC(C)(C)C)c3c2)c2cn(C3(C(F)(F)F)CC3)nn2)c(C)n1` [Example 687, (S)-8-chloro-6-(((2,6-dimethylpyridin-3-yl)(1-(1-(trifluoromethyl)cyclopropyl)-1H-1,2,3-triazol-4-yl)methyl)amino)-4-(neopentylamino)quinoline-3-carbonitrile], under setting [1], the midpoint of inhibition, the IC50, lay at 15 nM.

For `N#Cc1cnc2c(Cl)cc(N[C@H](c3cn(CCO)nn3)c3ccc(Cl)nc3Cl)cc2c1Nc1ccc(F)c(Cl)c1` [Example 329, (S)-8-chloro-4-4-((3-chloro-4-fluorophenyl)amino)-6-(((2,6-dichloropyridin-3-yl)(1-(2-hydroxyethyl)-1H-1,2,3-triazol-4-yl)methyl)amino)-quinoline-3-carbonitrile], the IC50 under setting [2] was determined as 14 nM.

As for `Cc1ncccc1[C@H](Nc1cc(Cl)c2ncc(C#N)c(Nc3cccc(Cl)c3)c2c1)c1c[nH]nn1` [Example 224, (S)-8-chloro-4-((3-chlorophenyl)amino)-6-(((2-methylpyridin-3-yl)(1H-1,2,3-triazol-4-yl)methyl)amino)-quinoline-3-carbonitrile], the IC50 under setting [1] amounted to 12 nM.

Under setting [1], `CC(C)n1cc([C@@H](Nc2cc(Cl)c3ncc(C#N)c(Nc4ccc(F)c(Cl)c4)c3c2)c2cncs2)nn1` [Example 303, (R)-8-chloro-4-((3-chloro-4-fluorophenyl)amino)-6-(((1-isopropyl-1H-1,2,3-triazol-4-yl)(thiazol-5-yl)methyl)amino)quinoline-3-carbonitrile] had an IC50 of 14 nM.

`Cc1ncccc1[C@H](Nc1cc(Cl)c2ncc(C#N)c(Nc3ccc(Cl)c(Cl)c3F)c2c1)c1cn(C(C)C)nn1` [Example 232, (S)-8-chloro-4-((3,4-dichloro-2-fluorophenyl)amino)-6-(((1-isopropyl-1H-1,2,3-triazol-4-yl)(2-methylpyridin-3-yl)methyl)amino)quinoline-3-carbonitrile] registered an IC50 under setting [1] of 15 nM.

`Cn1nccc1[C@H](Nc1cc(Cl)c2ncc(C#N)c(NCC(C)(C)C)c2c1)c1cn(C2(C(F)(F)F)CC2)nn1` [Example 666, (S)-8-chloro-6-(((1-methyl-1H-pyrazol-S-yl)(1-(1-(trifluoromethyl)cyclopropyl)-1H-1,2,3-triazol-4-yl)methyl)amino)-4-(neopentylamino)quinoline-3-carbonitrile]: the IC50 under setting [2] stood at 13 nM.

In the case of `Cn1cnc([C@H](Nc2cc(Cl)c3ncc(C#N)c(Nc4ccc(F)c(Cl)c4)c3c2)c2c[nH]nn2)c1` [Example 266, (S)-8-chloro-4-((3-chloro-4-fluorophenyl)amino)-6-(((1-methyl-1H-imidazol-4-yl)(1H-1,2,3-triazol-4-yl)methyl)amino)-quinoline-3-carbonitrile], inhibition under setting [1] was half-maximal at 37 nM (IC50).

The molecule `[2H]C([2H])(Nc1c(C#N)cnc2c(Cl)cc(N[C@@]([2H])(c3ccc(N(C)C)nc3)c3cn(C4CC4)nn3)cc12)C(C)(C)C` [Example 679, (S)-8-chloro-6-(((1-cyclopropyl-1H-1,2,3-triazol-4-yl)(6-(dimethylamino)pyridin-3-yl)methyl-d)amino)-4-((2,2-dimethylpropyl-1,1-d2)amino)quinoline-3-carbonitrile] registered an IC50 under setting [1] of 13 nM.

Under setting [1], `Cc1ncccc1[C@H](Nc1cc(Cl)c2ncc(C#N)c(Nc3ccc(F)c(Cl)c3)c2c1)c1cn(COC(=O)C(C)(C)C)nn1` [Example 274, (S)-(4-(((8-chloro-4-((3-chloro-4-fluorophenyl)amino)-3-cyanoquinolin-6-yl)amino)(2-methylpyridin-3-yl)methyl)-1H-1,2,3-triazol-1-yl)methyl pivalate] yielded an IC50 of 12 nM.

Turning to `N#Cc1cnc2c(Cl)cc(N[C@@H](c3cccnc3)c3cn(C4CCN(C5COC5)CC4)nn3)cc2c1Nc1ccc(F)c(Cl)c1` [Example 314, (S)-8-chloro-4-((3-chloro-4-fluorophenyl)amino)-6-(((1-(1-(oxetan-3-yl)piperidin-4-yl)-1H-1,2,3-triazol-4-yl)(pyridin-3-yl)methyl)amino)quinoline-3-carbonitrile], under setting [1], inhibition was half-maximal at 15 nM (IC50).

These data come from patent US11066414B2, “Cot modulators and methods of use thereof” (Gilead Sciences, Inc., priority 2015, dated 2021).
